This note sets out measurements from US10618918B2, “Substituted boronic acids as antimicrobials” (priority 2015, dated 2020).

The chains behind the UniProt entries cited, without tags or fusion partners. Where a name states a change or a piece, a line headed by the entry shows the natural chain unless it says otherwise. Residues count along the entry.
UniProt P24735: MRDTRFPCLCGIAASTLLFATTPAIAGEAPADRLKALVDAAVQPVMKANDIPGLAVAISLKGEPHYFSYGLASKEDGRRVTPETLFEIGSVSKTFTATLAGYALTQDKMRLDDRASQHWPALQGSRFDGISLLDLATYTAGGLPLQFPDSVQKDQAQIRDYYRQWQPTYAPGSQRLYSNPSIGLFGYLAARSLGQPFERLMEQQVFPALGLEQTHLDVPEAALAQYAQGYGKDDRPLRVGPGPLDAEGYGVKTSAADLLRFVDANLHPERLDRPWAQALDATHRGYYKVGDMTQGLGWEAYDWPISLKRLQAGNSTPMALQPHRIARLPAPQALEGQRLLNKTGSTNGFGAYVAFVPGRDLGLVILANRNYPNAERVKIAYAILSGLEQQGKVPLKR
UniProt P05364, 21-381: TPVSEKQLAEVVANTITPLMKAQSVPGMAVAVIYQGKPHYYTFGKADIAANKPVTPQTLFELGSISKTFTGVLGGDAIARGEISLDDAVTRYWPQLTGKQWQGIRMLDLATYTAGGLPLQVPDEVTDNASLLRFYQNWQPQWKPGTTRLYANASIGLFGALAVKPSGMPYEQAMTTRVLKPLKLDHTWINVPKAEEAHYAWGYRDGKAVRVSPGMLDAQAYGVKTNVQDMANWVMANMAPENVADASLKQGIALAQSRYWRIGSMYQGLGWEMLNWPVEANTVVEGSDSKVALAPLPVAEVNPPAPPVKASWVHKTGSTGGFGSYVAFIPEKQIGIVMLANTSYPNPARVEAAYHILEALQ

A value given as a limit tells only on which side of the number the result lay.

For test [1], the target named is T1, purified class A, C and D enzymes (β-lactamases) (Pseudomonas aeruginosa, UniProt P24735).
T1 construct: rows headed: Ki (Pa-AmpC, NCF), uM; other: purified Pa-AmpC; nitrocefin (NCF) as reporter substrate
It is filed as biochemical. The note with it: read-out: Ki (Pa-AmpC, NCF).

The target in test [2] is purified class A, C and D enzymes (β-lactamases) (Enterobacter cloacae, UniProt P05364). The test is classed as biochemical. The note with it: read-out: Ki (P99, NCF).

On to “Disodium; 4,4-dihydroxy-8-(1H-triazol-4-ylmethoxy)-5-oxa-4-boranuidabicyclo[4.4.0]deca-1(6),7,9-triene-7-carboxylate [Compound 24]”, for which the inhibitory constant (Ki) in test [1] and in test [2] was below 100 nM throughout.

The term Ki denotes the equilibrium dissociation constant of an inhibitor or competing ligand from its target.
